Protein sequences, listed by entry. Tags and fused reporters are not part of them. Residues count along the entry.
UniProt P22894, 100-262 limits assumed: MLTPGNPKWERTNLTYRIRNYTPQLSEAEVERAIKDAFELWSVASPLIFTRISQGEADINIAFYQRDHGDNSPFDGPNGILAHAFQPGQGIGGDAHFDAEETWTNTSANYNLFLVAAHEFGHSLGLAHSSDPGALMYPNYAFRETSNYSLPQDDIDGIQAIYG
UniProt P08253, 110-446 limits assumed: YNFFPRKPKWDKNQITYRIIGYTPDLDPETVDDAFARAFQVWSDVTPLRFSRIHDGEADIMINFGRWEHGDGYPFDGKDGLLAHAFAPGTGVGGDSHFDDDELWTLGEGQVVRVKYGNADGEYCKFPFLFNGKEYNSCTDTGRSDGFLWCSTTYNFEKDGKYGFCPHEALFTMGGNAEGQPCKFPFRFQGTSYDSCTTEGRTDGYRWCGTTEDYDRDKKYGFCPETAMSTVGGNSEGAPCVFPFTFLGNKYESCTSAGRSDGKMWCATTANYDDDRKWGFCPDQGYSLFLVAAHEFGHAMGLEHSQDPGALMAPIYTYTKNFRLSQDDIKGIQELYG

In publication PMC2835692 (Journal of cardiovascular pharmacology, 2009):

Legend:
Assay type in all cases: biochemical
[1] = molecular target: T1, recombinant human MMP-1 catalytic domain (Homo sapiens, UniProt P03956); experiment: Recombinant MMP fluorescent assay, MMP-1
T1 sequence (P03956 100-269 limits assumed): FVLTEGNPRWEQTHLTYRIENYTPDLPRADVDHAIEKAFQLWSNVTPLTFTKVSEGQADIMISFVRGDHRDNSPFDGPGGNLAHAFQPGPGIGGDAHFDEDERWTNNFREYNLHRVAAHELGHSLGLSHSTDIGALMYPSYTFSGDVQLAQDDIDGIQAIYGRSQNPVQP

[2] = molecular target: recombinant human MMP-8 catalytic domain (Homo sapiens, UniProt P22894); experiment: Recombinant MMP fluorescent assay, MMP-8
[3] = molecular target: recombinant human MMP-2 catalytic domain (Homo sapiens, UniProt P08253); experiment: Recombinant MMP fluorescent assay, MMP-2; details: read-out: IC50 MMP-2; 1 hour preincubation at 37°C

Compound	IC50 ([1]; IC50 MMP-1, 1 hour preincubation at 37°C)	IC50 ([1]; IC50 MMP-1, as stated in discussion text)	IC50 ([2]; IC50 MMP-8, 1 hour preincubation at 37°C)	IC50 ([2]; IC50 MMP-8, as stated in discussion text)	IC50 [3]
COc1ccc(S(=O)(=O)N(Cc2cccnc2)[C@@H](C(=O)NO)C(C)C)cc1 [CGS27023A]	< 50 nM	≤ 50 nM	< 50 nM	≤ 50 nM	–
CC(C)[C@H](NS(=O)(=O)c1ccc(-c2ccc(Br)cc2)cc1)C(=O)O [PD166793, reference compound]	–	–	–	–	< 50 nM
